Legend:
TANK-2 enzyme = TANK-2 enzyme (Homo sapiens, UniProt Q9H2K2); experiment: In vitro Scintillation Proximity Assay (SPA) for TANK-2 inhibitory activity
Protocol: Compounds of the present invention were tested in an in vitro assay based on SPA technology with Ni Flash plates (96 or 384 well). In principle, the assay relies upon SPA technology for the detection of auto-poly(ADP-ribosyl)ation of TANK-2 protein using [^3H]-nicotinamide adenine dinucleotide ([^3H]-NAD^+) as ADP-ribosyl donor.
A stock solution of 100 nM [3H]-NAD^+/NAD (0.1 mCi/ml, supplier: Perkin Elmer) and 0.25 μM NAD (Sigma) was made in assay buffer (60 mM Tris/HCl, pH 7.4; 0.9 mM DTT; 6 mM MgCl2). The TANK-2 enzyme was produced as described in EP1238063. 60 μl of assay buffer, together with 1 μl of compound in DMSO, 20 μl of [^3H]-NAD^+/NAD and 20 μl of TANK-2 enzyme (final concentration 8 μg/ml) was added per well into a 96-well Ni-coated flash plate (Perkin Elmer). After incubation of the mixture for 120 min. at room temperature, the reaction was terminated by adding 60 μl of stopsolution (42.6 mg NAD in 6 ml H2O). The plates were covered with a plate sealer and placed in a TopCountNXT™ (Packard) for scintillation counting. Values were expressed as counts per minute (cpm). For each experiment, controls (containing TANK-2 enzyme and DMSO without compound), a blank incubation (containing DMSO but no TANK-2 enzyme or compound) and samples (containing TANK-2 enzyme and compound dissolved in DMSO) were run in parallel. All compounds tested were dissolved and eventually further diluted in DMSO. In first instance, compounds were tested at a concentration of 10^−5M. […] In each test, the blank value was subtracted from both the control and the sample values. The control sample represented maximal TANK-2 enzyme activity. For each sample, the amount of cpm was expressed as a percentage of the mean cpm value of the controls. When appropriate, IC50-values (concentration of the drug, needed to reduce the TANK-2 enzyme activity to 50% of the control) were computed using linear interpolation between the experimental points just above and below the 50% level. Herein the effects of test compounds are expressed as pIC50 (the negative log value of the IC50-value). […]

Protein sequences, listed by entry. Tags and fused reporters are not part of them.
UniProt Q9H2K2, whole entry: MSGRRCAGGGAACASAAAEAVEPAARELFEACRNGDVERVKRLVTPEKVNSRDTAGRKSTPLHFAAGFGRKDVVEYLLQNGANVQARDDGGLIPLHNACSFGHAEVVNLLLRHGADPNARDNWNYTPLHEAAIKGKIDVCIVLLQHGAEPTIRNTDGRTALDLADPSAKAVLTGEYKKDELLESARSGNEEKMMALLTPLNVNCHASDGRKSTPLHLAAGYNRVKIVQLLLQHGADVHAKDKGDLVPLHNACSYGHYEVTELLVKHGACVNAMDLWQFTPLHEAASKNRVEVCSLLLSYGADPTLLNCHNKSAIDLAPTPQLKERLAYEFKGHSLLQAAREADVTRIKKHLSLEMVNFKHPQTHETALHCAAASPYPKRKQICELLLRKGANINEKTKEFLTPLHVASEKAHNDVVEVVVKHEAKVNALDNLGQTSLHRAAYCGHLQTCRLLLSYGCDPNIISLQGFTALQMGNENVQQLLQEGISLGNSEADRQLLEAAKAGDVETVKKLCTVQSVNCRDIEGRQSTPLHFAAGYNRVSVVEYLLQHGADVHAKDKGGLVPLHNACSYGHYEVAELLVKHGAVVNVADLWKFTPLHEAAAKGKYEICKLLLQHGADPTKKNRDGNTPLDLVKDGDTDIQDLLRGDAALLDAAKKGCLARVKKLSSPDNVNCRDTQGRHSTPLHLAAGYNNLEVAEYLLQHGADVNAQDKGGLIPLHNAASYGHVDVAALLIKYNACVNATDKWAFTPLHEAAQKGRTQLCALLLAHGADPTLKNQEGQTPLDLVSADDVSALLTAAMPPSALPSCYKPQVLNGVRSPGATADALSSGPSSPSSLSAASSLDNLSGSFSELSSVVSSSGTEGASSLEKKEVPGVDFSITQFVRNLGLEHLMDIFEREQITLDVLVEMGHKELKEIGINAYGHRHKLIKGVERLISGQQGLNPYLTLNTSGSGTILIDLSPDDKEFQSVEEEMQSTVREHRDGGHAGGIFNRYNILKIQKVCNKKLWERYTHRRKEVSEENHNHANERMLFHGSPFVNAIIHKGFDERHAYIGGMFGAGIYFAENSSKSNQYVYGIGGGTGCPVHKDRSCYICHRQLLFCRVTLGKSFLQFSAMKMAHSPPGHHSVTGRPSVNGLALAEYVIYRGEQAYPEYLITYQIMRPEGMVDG

HCT116 cells = experiment: Antiproliferative activity, Alamar Blue assay, HCT116 cells; set-up: key: pIC50 = -log IC50 (IC50: conc. reducing growth to 50% of control)
Protocol: Human colon carcinoma HCT116 cells obtained from the ATCC were cultured in McCoy's 5 A medium supplemented with 2 mM L-Glutamine, 50 μg/ml gentamicin and 10% heat inactivated fetal calf serum.
(§1) Resazurin was purchased from Aldrich (Prod. No. 199303). Potassium ferrocyanide, potassium ferricyanide, KH2PO4 and K2HPO4 were purchased from Sigma (Prod. Nos. P9387, P8131, P5655 and P8281, respectively).
(§2) Potassium Phosphate Buffer 0.1 M (PPB) was made as follows: 2.72 gram KH2PO4 and 13.86 gram K2HPO4 were dissolved in 500 ml milli-Q H2O, the pH was adjusted to pH 7.4 and the volume was brought to 1 litre with milli-Q H2O; the buffer was filter sterilised and stored at room temperature. Resazurin stock solution (PPB-A) was prepared fresh by dissolving 45 mg resazurin in 15 ml PBS. 30 mM potassium ferricyanide (PPB-B) was prepared by dissolving 0.987 gram potassium ferricyanide in 100 ml PPB. 30 mM potassium ferrocyanide (PPB-C) was prepared by dissolving 1.266 gram potassium ferrocyanide in 100 ml PPB.
(§3) Mixture of PPB-A, PPB-B and PPB-C was prepared by mixing equal volumes of the respective solutions. Resazurin work solution (herein termed “Alamar Blue” solution) was prepared by diluting said mixture 20×(vol/vol) in PPB and filter sterilising; the Alamar Blue solution could be kept at 4° C. for a maximum of 2 weeks.
(§4) For experiments in 384 wells plates the cells were seeded at a density of 4.5×10^3 cells/ml in Falcon 384-well culture plates (Life Technologies, Merelbeke, Belgium), black with clear bottom, in 45 μl culture medium. Cells were allowed to adhere to plastic for 24 hr. […] The fluorescence intensity was measured for each well on a Fluorescence plate reader (Fluorskan, Labsystems, 540 nm excitation and 590 nm emission)
(§5) The antiproliferative activity was calculated as percentage of remaining viable cells in treated versus control (untreated cells) conditions. […] Herein the effects of test compounds are expressed as pIC50 (the negative log value of the IC50-value) (see Table 2).

PC-3 cells = experiment: Antiproliferative activity, Alamar Blue assay, PC-3 cells
Protocol: Human prostate cancer PC-3 cells obtained from the ATCC were cultured in HAM′S F12 medium supplemented with 1 mM Sodium Pyruvate, 1.5 g/L Sodium Bicarbonate, 50 μg/ml gentamicin, non-essential amino acids and 10% fetal calf serum.
as §1, §2, §3, §4, §5

CCc1cc2ccc(C(C)(C#N)Cc3cccc([N+](=O)[O-])c3)cc2[nH]c1=O (stereo not drawn)
in vitro SPA assay TANK-2 pIC50 (TANK-2 enzyme): 6.8 | HCT116 antiproliferative activity pIC50 (HCT116 cells): 6.8 | PC3 antiproliferative activity pIC50 (PC-3 cells): 6.7

CCc1cc2ccc(C(C)(C#N)C3CCc4c(Cl)ccnc43)cc2[nH]c1=O (single isomer, unassigned) [246]
in vitro SPA assay TANK-2 pIC50 (TANK-2 enzyme): 6.2 | HCT116 antiproliferative activity pIC50 (HCT116 cells): 7.2 | PC3 antiproliferative activity pIC50 (PC-3 cells): 7.0

CCc1cc2ccc(C(C)(C#N)C3CCc4c(Cl)ccnc43)cc2[nH]c1=O (single isomer, unassigned) [247]
in vitro SPA assay TANK-2 pIC50 (TANK-2 enzyme): 5.6 | HCT116 antiproliferative activity pIC50 (HCT116 cells): 6.7 | PC3 antiproliferative activity pIC50 (PC-3 cells): 6.6

From patent US8778966B2, “Quinolinone derivatives as PARP and tank inhibitors” (Janssen Pharmaceutica, NV, priority 2007, dated 2014)
